# In publication PMC12044245 (Emerging Infectious Diseases, 2025):
# Target: NA (neuraminidase) of A/Yamagata/135/2023 (Influenza A virus, UniProt C3W5S3)
# Assay type: biochemical
compound,measurement,value
"CC(=O)N[C@H]1[C@H]([C@H](O)[C@H](O)CO)OC(C(=O)O)=C[C@@H]1N=C(N)N [Zanamivir, zanamivir]",IC50,430 pM
